Experiments:
[1] = Selectivity ratio of IC50 for DNA-PK (unknown origin) to IC50 for ATK (unknown origin)
[2] = Selectivity ratio of IC50 for mTOR (unknown origin) to IC50 for ATK (unknown origin)

CNc1nc2ccccc2n1-c1nc(N2CCOC[C@H]2C)c2scc(S(C)(=O)=O)c2n1
Selectivity ratio [1]: 16.9
Selectivity ratio [2]: 39.2
